Source: US6335457B1, “Complex containing biologically assimilable orthosilicic acid, which is under solid form, stable and concentrated, and a process for preparation of said complex” (Exsymol S.A.M., priority 1999, dated 2002)

Key:
[1] = above it oligomers and polymers form; cited from earlier work
[2] = rat duodenum; for % of silicon diffusion: pH 8.5, 37° C.

| Substance | concentration up to which relatively stable in solution [1] | diffusion through the duodenal wall, in words ([2]; pH 8.5) | % of silicon diffusion ([2]; time 0 min) [%] | % of silicon diffusion ([2]; time 24 min) [%] | % of silicon diffusion ([2]; time 28 min) [%] | % of silicon diffusion ([2]; time 34 min) [%] | % of silicon diffusion ([2]; time 48 min) [%] | % of silicon diffusion ([2]; time 56 min) [%] | % of silicon diffusion ([2]; time 60 min) [%] | % of silicon diffusion ([2]; time 68 min) [%] | % of silicon diffusion ([2]; time 70 min) [%] | % of silicon diffusion ([2]; time 74 min) [%] | % of silicon diffusion ([2]; time 85 min) [%] | % of silicon diffusion ([2]; time 90 min) [%] |
| --- | --- | --- | --- | --- | --- | --- | --- | --- | --- | --- | --- | --- | --- | --- |
| orthosilicic acid [Monomeric orthosilicic acid] | about 10^−4 Mol.l^−1 |  |  |  |  |  |  |  |  |  |  |  |  |  |
| orthosilicic acid [Non stabilised orthosilicic acid] |  | weak diffusion | 0 | 0.67 | 0.99 | 1 | 1.16 | 1.54 | 1.75 | 1.86 | 2.08 | 2.13 | 2.54 | 2.67 |

Where two headings read alike, the source gives them in different places.
